From ChEMBL document CHEMBL5291721, “A preclinical secondary pharmacology resource illuminates target-adverse drug reaction associations of marketed drugs” (Nat Commun, 2023)

Amino acid sequences for entries named in this document (tags omitted). A change or cut given only in a name is not applied to a line headed by its entry.
UniProt P08913, whole entry: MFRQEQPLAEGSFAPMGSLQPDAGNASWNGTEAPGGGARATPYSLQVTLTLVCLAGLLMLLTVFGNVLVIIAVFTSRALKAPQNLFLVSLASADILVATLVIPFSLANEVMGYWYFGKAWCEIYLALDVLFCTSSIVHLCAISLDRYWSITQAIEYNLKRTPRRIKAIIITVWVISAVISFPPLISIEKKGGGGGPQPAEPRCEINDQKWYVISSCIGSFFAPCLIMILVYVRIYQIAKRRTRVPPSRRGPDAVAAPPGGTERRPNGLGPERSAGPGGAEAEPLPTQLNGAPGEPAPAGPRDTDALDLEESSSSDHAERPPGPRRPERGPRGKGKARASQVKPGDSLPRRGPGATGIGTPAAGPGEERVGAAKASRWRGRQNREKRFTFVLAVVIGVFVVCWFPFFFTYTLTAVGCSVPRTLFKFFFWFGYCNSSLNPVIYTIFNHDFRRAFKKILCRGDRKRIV
UniProt P18089, whole entry: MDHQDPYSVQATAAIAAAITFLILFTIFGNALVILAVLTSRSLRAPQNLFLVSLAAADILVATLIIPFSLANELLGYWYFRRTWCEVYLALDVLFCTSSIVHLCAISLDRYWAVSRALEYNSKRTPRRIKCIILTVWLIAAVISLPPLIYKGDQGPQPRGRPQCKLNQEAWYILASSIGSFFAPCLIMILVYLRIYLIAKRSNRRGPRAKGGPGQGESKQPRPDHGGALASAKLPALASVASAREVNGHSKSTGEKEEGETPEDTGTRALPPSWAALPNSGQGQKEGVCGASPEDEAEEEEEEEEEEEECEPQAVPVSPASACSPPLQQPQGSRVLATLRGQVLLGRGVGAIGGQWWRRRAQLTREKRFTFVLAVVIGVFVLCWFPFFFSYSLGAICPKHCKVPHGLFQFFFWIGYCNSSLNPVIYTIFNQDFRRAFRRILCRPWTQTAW
UniProt P07550, whole entry: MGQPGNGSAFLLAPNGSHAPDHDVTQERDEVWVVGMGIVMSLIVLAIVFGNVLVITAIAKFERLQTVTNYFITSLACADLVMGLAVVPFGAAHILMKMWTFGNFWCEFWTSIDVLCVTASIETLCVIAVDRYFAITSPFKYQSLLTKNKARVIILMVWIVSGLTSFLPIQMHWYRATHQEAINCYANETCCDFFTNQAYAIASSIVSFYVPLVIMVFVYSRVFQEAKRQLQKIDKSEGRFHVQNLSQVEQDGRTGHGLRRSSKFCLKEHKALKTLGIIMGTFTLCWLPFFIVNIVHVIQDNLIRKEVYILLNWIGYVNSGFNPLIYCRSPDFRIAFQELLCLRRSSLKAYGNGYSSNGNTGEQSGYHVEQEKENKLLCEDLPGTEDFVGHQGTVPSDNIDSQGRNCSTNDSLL
UniProt P22303: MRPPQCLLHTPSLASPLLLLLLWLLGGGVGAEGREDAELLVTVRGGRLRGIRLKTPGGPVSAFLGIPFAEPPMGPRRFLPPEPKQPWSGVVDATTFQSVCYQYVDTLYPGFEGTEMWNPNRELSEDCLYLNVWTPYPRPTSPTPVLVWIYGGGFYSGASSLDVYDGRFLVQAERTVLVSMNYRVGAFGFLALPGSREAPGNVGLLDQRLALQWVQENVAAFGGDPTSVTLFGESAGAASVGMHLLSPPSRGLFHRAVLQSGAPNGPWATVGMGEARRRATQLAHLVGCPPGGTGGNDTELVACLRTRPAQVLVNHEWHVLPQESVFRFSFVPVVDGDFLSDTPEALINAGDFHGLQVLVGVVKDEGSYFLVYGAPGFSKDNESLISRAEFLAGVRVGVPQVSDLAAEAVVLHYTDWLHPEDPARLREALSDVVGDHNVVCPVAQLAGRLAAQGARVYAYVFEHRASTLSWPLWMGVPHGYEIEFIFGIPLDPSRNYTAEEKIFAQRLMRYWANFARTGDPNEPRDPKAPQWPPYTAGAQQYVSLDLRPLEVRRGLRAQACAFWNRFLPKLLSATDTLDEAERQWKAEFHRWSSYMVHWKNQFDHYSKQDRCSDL
UniProt Q14524, whole entry: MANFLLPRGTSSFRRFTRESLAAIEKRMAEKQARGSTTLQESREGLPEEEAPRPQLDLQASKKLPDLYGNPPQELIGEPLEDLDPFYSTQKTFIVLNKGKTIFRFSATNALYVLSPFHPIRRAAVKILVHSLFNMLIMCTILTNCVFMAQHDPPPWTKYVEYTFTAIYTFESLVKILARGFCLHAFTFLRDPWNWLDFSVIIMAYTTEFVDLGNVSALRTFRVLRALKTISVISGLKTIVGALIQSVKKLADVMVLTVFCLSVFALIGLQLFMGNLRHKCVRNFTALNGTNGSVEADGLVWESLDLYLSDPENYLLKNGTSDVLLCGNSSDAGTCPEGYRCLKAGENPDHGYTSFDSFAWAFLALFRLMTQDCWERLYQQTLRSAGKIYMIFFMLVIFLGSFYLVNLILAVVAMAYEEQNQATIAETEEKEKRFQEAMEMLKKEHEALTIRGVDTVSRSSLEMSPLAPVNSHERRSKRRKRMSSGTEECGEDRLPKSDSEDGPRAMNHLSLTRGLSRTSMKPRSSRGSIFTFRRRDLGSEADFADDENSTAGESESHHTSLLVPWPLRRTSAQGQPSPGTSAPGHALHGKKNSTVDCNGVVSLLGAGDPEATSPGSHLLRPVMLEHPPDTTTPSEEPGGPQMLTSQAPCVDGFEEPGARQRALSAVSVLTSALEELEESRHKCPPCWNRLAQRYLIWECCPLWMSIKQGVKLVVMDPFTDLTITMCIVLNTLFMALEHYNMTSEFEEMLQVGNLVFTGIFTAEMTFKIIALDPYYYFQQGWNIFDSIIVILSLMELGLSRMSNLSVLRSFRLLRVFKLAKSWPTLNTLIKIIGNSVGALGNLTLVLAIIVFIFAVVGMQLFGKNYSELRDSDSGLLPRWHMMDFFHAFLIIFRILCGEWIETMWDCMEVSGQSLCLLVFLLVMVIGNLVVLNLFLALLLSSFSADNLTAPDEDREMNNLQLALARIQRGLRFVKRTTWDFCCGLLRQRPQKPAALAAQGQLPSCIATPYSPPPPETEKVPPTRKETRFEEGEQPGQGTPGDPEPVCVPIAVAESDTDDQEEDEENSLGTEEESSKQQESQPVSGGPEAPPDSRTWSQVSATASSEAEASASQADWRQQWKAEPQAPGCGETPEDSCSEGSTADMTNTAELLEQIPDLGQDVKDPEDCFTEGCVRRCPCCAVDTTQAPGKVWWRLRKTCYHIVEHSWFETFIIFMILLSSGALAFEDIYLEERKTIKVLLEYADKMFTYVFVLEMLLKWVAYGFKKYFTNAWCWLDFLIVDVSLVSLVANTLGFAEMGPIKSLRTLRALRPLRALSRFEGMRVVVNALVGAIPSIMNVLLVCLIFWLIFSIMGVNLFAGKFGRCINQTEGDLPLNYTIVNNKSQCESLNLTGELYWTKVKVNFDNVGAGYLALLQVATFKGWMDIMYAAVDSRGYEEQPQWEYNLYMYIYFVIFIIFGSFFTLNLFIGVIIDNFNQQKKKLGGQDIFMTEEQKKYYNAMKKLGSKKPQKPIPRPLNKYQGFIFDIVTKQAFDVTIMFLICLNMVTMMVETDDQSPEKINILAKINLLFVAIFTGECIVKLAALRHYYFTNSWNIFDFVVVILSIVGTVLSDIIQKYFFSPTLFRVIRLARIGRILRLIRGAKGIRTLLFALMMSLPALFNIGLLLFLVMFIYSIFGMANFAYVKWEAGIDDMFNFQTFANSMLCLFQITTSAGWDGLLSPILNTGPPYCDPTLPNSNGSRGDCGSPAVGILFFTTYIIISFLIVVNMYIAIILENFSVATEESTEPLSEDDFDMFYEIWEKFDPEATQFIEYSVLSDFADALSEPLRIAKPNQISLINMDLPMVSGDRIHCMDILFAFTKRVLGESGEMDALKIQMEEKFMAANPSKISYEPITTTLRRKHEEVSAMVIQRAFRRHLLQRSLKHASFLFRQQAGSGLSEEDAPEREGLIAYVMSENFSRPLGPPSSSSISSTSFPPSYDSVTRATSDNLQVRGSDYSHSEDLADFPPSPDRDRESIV
UniProt P35462, whole entry: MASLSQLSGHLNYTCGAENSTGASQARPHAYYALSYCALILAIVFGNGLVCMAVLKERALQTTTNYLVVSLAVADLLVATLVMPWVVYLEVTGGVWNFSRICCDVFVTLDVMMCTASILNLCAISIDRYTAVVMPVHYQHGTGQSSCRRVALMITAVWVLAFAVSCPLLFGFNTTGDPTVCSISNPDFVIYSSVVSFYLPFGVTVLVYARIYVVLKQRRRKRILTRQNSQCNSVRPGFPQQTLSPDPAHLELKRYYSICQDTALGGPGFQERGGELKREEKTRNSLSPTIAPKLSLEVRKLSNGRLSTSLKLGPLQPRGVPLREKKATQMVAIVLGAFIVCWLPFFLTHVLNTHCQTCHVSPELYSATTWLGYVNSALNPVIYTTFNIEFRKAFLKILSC
UniProt P21728, whole entry: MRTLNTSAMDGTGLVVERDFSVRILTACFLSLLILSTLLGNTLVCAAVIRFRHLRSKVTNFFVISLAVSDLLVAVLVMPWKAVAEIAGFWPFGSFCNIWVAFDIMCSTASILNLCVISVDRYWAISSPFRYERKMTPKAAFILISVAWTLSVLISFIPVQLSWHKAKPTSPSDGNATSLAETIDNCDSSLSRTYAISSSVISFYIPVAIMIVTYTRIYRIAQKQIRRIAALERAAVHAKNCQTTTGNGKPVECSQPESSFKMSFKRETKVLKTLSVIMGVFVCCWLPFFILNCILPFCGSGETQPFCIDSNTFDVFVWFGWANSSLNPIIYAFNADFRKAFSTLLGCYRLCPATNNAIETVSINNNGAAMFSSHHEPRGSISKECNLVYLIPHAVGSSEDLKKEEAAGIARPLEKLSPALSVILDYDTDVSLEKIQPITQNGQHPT
UniProt P41145: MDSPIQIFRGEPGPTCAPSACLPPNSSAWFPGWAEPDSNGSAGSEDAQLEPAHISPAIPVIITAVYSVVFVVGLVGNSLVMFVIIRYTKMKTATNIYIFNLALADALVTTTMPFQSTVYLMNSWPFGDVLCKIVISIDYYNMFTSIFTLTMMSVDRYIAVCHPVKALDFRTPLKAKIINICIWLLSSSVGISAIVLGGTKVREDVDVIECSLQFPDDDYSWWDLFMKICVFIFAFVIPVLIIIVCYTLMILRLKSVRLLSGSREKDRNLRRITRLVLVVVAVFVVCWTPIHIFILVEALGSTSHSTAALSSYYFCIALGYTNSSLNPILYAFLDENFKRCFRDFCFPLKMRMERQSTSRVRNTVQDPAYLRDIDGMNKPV
UniProt P41595, whole entry: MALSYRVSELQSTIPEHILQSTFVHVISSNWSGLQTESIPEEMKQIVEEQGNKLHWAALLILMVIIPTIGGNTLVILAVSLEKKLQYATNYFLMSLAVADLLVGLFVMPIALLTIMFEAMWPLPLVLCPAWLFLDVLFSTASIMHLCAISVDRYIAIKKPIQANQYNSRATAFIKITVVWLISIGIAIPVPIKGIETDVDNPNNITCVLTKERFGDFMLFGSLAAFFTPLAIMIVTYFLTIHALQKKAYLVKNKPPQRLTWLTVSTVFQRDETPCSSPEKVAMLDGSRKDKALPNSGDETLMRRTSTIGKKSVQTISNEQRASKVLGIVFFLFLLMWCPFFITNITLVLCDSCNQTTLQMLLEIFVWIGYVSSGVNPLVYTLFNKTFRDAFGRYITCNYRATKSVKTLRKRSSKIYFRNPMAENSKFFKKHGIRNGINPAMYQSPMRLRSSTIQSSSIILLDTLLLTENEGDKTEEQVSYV
UniProt P18825, whole entry: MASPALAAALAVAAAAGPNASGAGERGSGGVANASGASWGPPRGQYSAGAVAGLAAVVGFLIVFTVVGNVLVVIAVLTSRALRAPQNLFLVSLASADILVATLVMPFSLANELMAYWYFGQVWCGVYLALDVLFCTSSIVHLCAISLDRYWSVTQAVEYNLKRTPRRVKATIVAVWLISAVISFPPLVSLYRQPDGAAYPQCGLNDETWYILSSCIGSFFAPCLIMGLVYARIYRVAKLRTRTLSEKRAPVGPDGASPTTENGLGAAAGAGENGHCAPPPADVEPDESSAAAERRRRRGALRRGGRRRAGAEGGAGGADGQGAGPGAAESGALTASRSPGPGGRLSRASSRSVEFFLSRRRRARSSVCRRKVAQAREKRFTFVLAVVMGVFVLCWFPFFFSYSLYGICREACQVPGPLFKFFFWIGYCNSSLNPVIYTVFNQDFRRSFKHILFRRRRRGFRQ
UniProt P35372, whole entry: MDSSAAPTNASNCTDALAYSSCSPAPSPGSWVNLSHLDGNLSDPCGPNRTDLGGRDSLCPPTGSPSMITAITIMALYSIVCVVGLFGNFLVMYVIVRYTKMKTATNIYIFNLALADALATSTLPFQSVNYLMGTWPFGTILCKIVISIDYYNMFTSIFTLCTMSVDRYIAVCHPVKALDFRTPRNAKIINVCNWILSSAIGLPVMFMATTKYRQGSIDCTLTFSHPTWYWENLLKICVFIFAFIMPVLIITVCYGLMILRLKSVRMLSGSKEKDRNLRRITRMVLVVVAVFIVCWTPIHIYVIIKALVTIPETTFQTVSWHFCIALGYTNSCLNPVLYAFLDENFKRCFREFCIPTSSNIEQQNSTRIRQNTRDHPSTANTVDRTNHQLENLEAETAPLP

Legend:
[1] = target: T1, Alpha-2A adrenergic receptor (Homo sapiens, UniProt P08913); format: functional, cell-based
[2] = target: T1, Alpha-2A adrenergic receptor; format: functional, cell-based; remark: listed apart in the source
[3] = target: Alpha-2B adrenergic receptor (Homo sapiens, UniProt P18089)
[4] = target: Beta-2 adrenergic receptor (Homo sapiens, UniProt P07550)
[5] = target: 5-hydroxytryptamine receptor 2C (Homo sapiens, UniProt P28335)
[6] = target: T1, Alpha-2A adrenergic receptor
Acetylcholinesterase = Acetylcholinesterase (Homo sapiens, UniProt P22303); format: functional
[7] = target: Voltage-dependent L-type calcium channel subunit alpha-1C (Homo sapiens, UniProt Q13936); format: functional, cell-based
[8] = target: Sodium channel protein type 5 subunit alpha (Homo sapiens, UniProt Q14524); format: functional, cell-based
[9] = target: T2, 5-hydroxytryptamine receptor 1A (Homo sapiens, UniProt P08908); format: functional, cell-based
[10] = target: T2, 5-hydroxytryptamine receptor 1A; format: functional, cell-based; remark: listed apart in the source
[11] = target: T2, 5-hydroxytryptamine receptor 1A
D(3) dopamine receptor = D(3) dopamine receptor (Homo sapiens, UniProt P35462)
D(1A) dopamine receptor [12] = target: T3, D(1A) dopamine receptor (Homo sapiens, UniProt P21728); format: functional, cell-based
D(1A) dopamine receptor [13] = target: T3, D(1A) dopamine receptor
[14] = target: Type-1 angiotensin II receptor (Homo sapiens, UniProt P30556)
[15] = target: Kappa-type opioid receptor (Homo sapiens, UniProt P41145)
[16] = target: T1, Alpha-2A adrenergic receptor; remark: listed apart in the source
[17] = target: T4, 5-hydroxytryptamine receptor 2B (Homo sapiens, UniProt P41595); format: functional, cell-based
[18] = target: T4, 5-hydroxytryptamine receptor 2B; format: functional, cell-based; remark: listed apart in the source
[19] = target: T4, 5-hydroxytryptamine receptor 2B
[20] = target: T1, Alpha-2A adrenergic receptor; remark: listed apart in the source
[21] = target: Alpha-2C adrenergic receptor (Homo sapiens, UniProt P18825); format: functional
Mu-type opioid receptor [22] = target: T5, Mu-type opioid receptor (Homo sapiens, UniProt P35372); assay: biochemical; format: functional
Mu-type opioid receptor [23] = target: T5, Mu-type opioid receptor
[24] = target: Beta-1 adrenergic receptor (Homo sapiens, UniProt P08588); format: functional
Note: assay procedure not described here.

## O=C1NCCN1CCN1CCC(c2cn(-c3ccc(F)cc3)c3ccc(Cl)cc23)CC1 [SERTINDOLE]
[1]
  AC50: > 30 µM
[2]
  AC50: > 30 µM
[3]
  AC50: 2000 nM
[4]
  AC50: > 30 µM

## CCc1nn(CCCN2CCN(c3cccc(Cl)c3)CC2)c(=O)n1CCOc1ccccc1 [NEFAZODONE]
[1]
  AC50: > 10 µM
[2]
  AC50: 6.6 µM
[5]
  AC50: 130 nM
[6]
  AC50: 1420 nM

## CO[C@]12C[C@@H](COC(=O)c3cncc(Br)c3)CN(C)[C@@H]1Cc1cn(C)c3cccc2c13 [NICERGOLINE]
Acetylcholinesterase
  AC50: 692 nM

## Cc1nc(Nc2ncc(C(=O)Nc3c(C)cccc3Cl)s2)cc(N2CCN(CCO)CC2)n1 [DASATINIB]
[7]
  AC50: > 50 µM
[8]
  AC50: > 50 µM

## CNS(=O)(=O)Cc1ccc2[nH]cc(CCN(C)C)c2c1
[9]
  AC50: 13 µM
[10]
  AC50: 38 µM
[11]
  AC50: 1420 nM

## CCN1CCC[C@H]1CNC(=O)c1cc(S(N)(=O)=O)ccc1OC [LEVOSULPIRIDE]
D(3) dopamine receptor
  AC50: 120 nM

## CC(N)Cc1ccccc1 (stereo not given) [AMPHETAMINE]
D(1A) dopamine receptor [12]
  AC50: > 30 µM
D(1A) dopamine receptor [13]
  AC50: > 10 µM

## CCCc1nc2c(C)cc(-c3nc4ccccc4n3C)cc2n1Cc1ccc(-c2ccccc2C(=O)O)cc1
[14]
  AC50: 1 nM

## COc1ccc2c3c1O[C@H]1C(=O)CC[C@@]4(O)[C@@H](C2)N(C)CC[C@]314 [OXYCODONE]
[15]
  AC50: 2000 nM

## Clc1ccc2nsnc2c1NC1=NCCN1 [TIZANIDINE]
[1]
  AC50: 0.115 µM
[6]
  AC50: 136 nM
[16]
  AC50: 1300 nM

## CCNC(C)Cc1cccc(C(F)(F)F)c1 (stereo not given) [FENFLURAMINE]
[17]
  AC50: > 30 µM
[18]
  AC50: > 30 µM
[19]
  AC50: 4.36 µM
[5]
  AC50: > 10000 nM

## CC(C)C[C@H]1C(=O)N2CCC[C@H]2[C@]2(O)O[C@](NC(=O)[C@@H]3C=C4c5cccc6[nH]c(Br)c(c56)C[C@H]4N(C)C3)(C(C)C)C(=O)N12 [BROMOCRIPTINE]
[1]
  AC50: > 10 µM
[2]
  AC50: 0.612 µM
[20]
  AC50: 53.4 nM
[21]
  AC50: 1570 nM
[6]
  AC50: 742 nM

## CCN(CC)CCCC(C)Nc1c2ccc(Cl)cc2nc2ccc(OC)cc12 (stereo not given) [QUINACRINE]
Acetylcholinesterase
  AC50: 928 nM

## Cc1c(C(=O)NN2CCCCC2)nn(-c2ccc(Cl)cc2Cl)c1-c1ccc(Cl)cc1 [RIMONABANT]
Mu-type opioid receptor [22]
  AC50: > 30 µM
Mu-type opioid receptor [23]
  AC50: 7.16 µM

## C=CCc1ccccc1OCC(O)CNC(C)C (stereo not given) [ALPRENOLOL]
[24]
  AC50: 6 nM
